Measured properties of organic chemicals

Values as listed in the OPERA 2.9 repository of K. Mansouri.

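The numbers are reported measurements, compiled and curated for the OPERA QSAR suite. A listed value is a point estimate from one report or more. Method and conditions are not stated for these values. A value may pool stereoisomers or salt forms, and the file does not say which form was measured. Some upstream entries may be estimates or bounds without being marked so.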

Melting points are in °C.
The boiling point refers to atmospheric pressure (760 mmHg), by the definition of the set.
The octanol-water partition coefficient is given as log10; larger values mean a more lipophilic compound.
Solubility in water is on a log10 molar scale (set defined at 25 °C).
Vapor pressures (log10 mmHg) refer to near room temperature, 15 to 30 °C; higher is more volatile.
Henry's law constant (air-water partitioning) is log10 of atm·m3/mol, nominally at 25 °C.
fu is the fraction unbound in human plasma, from 0 to 1.

The entry for C=CC(C)=CCC1OC1(C)C (configuration not stated) lists log Kow 2.99 and water solubility -2.354 (log10 mol/L) and vapor pressure -0.318 (log10 mmHg). CCC[Si](OC(C)=O)(OC(C)=O)OC(C)=O has MP -34.4 °C and vapor pressure -1.884 (log10 mmHg). The entry for CCOC(=O)C1OC1c1ccccc1 (configuration not stated) lists BP 264.8 °C and vapor pressure -3.046 (log10 mmHg). Listed for CCNC(=O)C(=O)O[C@@H]1C[C@H](C)CC[C@H]1C(C)C: BP 255.4 °C and water solubility -3.148 (log10 mol/L) and vapor pressure -4.576 (log10 mmHg). CCN(CCOc1ccc(C2CCCCC2)cc1)c1ccc(C=C(C#N)C#N)c(C)c1 is reported with log Kow 6.8 and water solubility -8.771 (log10 mol/L).

For CCCCCCCCCC(=O)OCC(C)(C)COC(=O)CCCCCCCCC the data give MP -2 °C and water solubility -8.235 (log10 mol/L). C=CCSC(=O)n1c(N)c(-c2ccccc2C)c(=O)n1C(C)C is reported with MP 116 °C and BP 240 °C and water solubility -4.21 (log10 mol/L) and Henry's law constant -8.796 (log10 atm·m3/mol). The entry for C=CC(=O)NCCC[Si](O[Si](C)(C)C)(O[Si](C)(C)C)O[Si](C)(C)C lists BP 301 °C and log Kow 5.5 and water solubility -7.148 (log10 mol/L) and vapor pressure -5.674 (log10 mmHg). Listed for Cc1cc(C)c(O)c(C(c2cc(C)cc(C)c2O)C(C)C)c1: MP 162 °C and water solubility -6.167 (log10 mol/L) and vapor pressure -7.527 (log10 mmHg). Listed for O=C(O)c1ccccc1SSc1ccccc1C(=O)O: log Kow 1.61 and vapor pressure -9 (log10 mmHg).

Listed for CC(C)(CS(=O)(=O)[O-])NC(=O)CCSCCC(F)(F)C(F)(F)C(F)(F)C(F)(F)C(F)(F)C(F)(F)F.[Na+]: MP 184.5 °C and vapor pressure -4.614 (log10 mmHg). Listed for Brc1ccc(Oc2c(Br)cccc2Br)cc1: MP 77.2 °C and log Kow 5.52 and vapor pressure -4.791 (log10 mmHg). For CCCCN1C[C@H](O)[C@@H](O)[C@H](O)[C@H]1CO the data give log Kow -0.6 and water solubility 0.419 (log10 mol/L) and plasma fu 0.99. For O=c1[nH]c2ccc([N+](=O)[O-])cc2[nH]1 the data give log Kow 1.35 and water solubility -3.274 (log10 mol/L). COc1ccc(/N=N/c2ccc(/N=N/c3cccc(S(=O)(=O)[O-])c3)cc2OC)cc1.[Na+] is reported with MP 282 °C and log Kow -2.18 and vapor pressure -13.18 (log10 mmHg).

CC(C)(O)c1cccc(C(C)(C)O)c1 has log Kow 1.6 and water solubility -1.83 (log10 mol/L). For CCC(=O)NCC[C@@H]1CCc2ccc3c(c21)CCO3 the data give log Kow 2.4 and water solubility -4.199 (log10 mol/L). For Brc1ccc(Oc2ccc(Br)c(Br)c2)c(Br)c1 the data give MP 63 °C and water solubility -7.431 (log10 mol/L) and vapor pressure -6.035 (log10 mmHg). For O=C(Nc1ccc(Cc2ccc(NC(=O)NC3CCCCC3)cc2)cc1)NC1CCCCC1 the data give log Kow 3.5 and water solubility -7.904 (log10 mol/L). For COCc1ccc(C=O)o1 the data give MP -17.07 °C and vapor pressure -1.745 (log10 mmHg).

The entry for CCCCOC(=O)c1ccc(C(=O)OCCCC)c(C(=O)OCCCC)c1 lists MP -54 °C and water solubility -4.807 (log10 mol/L). Listed for O=CC1CCCSC1 (configuration not stated): MP -47 °C and log Kow 1.44 and vapor pressure -0.958 (log10 mmHg).

Extract of 2 entries:

{"smiles": "CCCCCCCCCC(=O)OCC(C)(C)COC(=O)CCCCCCCCC", "MP (°C)": "-2", "water solubility (log10 mol/L)": "-8.235"}
{"smiles": "CC(C)(CS(=O)(=O)[O-])NC(=O)CCSCCC(F)(F)C(F)(F)C(F)(F)C(F)(F)C(F)(F)C(F)(F)F.[Na+]", "MP (°C)": "184.5", "vapor pressure (log10 mmHg)": "-4.614"}